Experimental data taken from patent US20110086797A1, “CONTROL OF SPORE GERMINATION” (priority 2007, published 2011).

System: bacterial cells
Assay: Lysis of bacterial cells
Details: His-tagged purified protein

Substance: YocA: His-tagged, cloned and purified B. subtilis YocH protein of the MltA family
- lysis of bacterial cells (result in words): lyse bacterial cells similar to hen egg white lysozyme
